Where two headings read alike, the source gives them in different places.
Key:
[1] = test system: patients hospitalized for a laparotomy in the context of digestive surgery; conditions: groups 4 vs 3, per-operative 20 mg nefopam hydrochloride, Mann-Whitney test
[2] = test system: rats; conditions: cited from earlier work

| SMILES | over-consumption (variation) of morphine titration, high-dose vs low-dose remifentanil group [1] | over-consumption (variation) of morphine titration, high-dose vs low-dose remifentanil group ([1]; listed as nefopam hydrochloride) | acute tolerance to alfentanil [2] |
| --- | --- | --- | --- |
| CN1CCOC(c2ccccc2)c2ccccc2C1 (stereo not drawn) [nefopam] | not significant | statistically non-significant |  |
| CNC1(c2ccccc2Cl)CCCCC1=O (stereo not drawn) |  |  | reduces, but without getting rid of |

Reference: US20060160789A1 (priority 2005, published 2006)
